## Antibody variant affinities, Ab-14 heavy chain, assay 1

All variants were tested on one target, the spike HR2 peptide PDVDLGDISGINAS (SARS-CoV-2).

Each scFv is VH, the linker GGGGSGGGGSGGGGS, VL, as in the parent Ab-14, and differs from it in the CDRs of the heavy chain only.
VH: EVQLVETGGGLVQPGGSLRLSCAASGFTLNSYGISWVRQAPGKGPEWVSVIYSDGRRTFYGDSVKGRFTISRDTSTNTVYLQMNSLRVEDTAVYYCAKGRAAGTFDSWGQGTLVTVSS
VL: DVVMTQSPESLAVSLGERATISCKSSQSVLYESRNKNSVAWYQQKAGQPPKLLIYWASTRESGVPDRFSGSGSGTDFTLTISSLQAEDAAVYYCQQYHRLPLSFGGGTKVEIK

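Phage display of a naive human antibody library on the peptide gave the parent. Variants in AAYL49 differ from the parent at up to three CDR positions; double and triple changes were sampled at random. The assay is AlphaSeq: two haploid yeast populations carry antibody and antigen on their surface. After mating in shaken culture at 30 °C for 16 h, diploids were selected and their barcode pairs sequenced. A regression on co-assayed BCL2-family reference pairs converts the normalised counts of each replicate to an apparent Kd. The assay was run in three technical replicates.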

The whole VH of each variant is written out.
Numbers give log10(Kd / nM), so 0 is 1 nM and 3 is 1 µM. Smaller is tighter.
The mean shown is taken over the replicates in which the pair was detected.
"ND" means that the variant was in the library but no mating with the target was seen in that replicate; the authors take this as a sign of poor binding, and no number exists.
In this assay the parent's reference entry averaged 0.65; its copy inside this library read 4.11 (one replicate of three).
Empty control strains, which show no peptide, gave a signal in 15% of pairings with library AAYL49; the median was 4.06 and 95% of these signals were weaker than 2.83. No background was subtracted. For each scFv, signals with the empty controls are counted beside the result, with their mean in brackets.

VH,"replicates, log10 nM","log10 Kd (nM), mean",empty controls
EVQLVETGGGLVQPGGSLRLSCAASGFTLNSYGMQWVRQAPGKGPEWVSVIYSDGRRTFYGDSCKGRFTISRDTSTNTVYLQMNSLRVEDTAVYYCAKGRAAGTFDSWGQGTLVTVSS,ND / ND / ND,ND,3/9 (4.48)
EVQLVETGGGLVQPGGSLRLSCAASGFTLNSYGISWVRQAPGKGPEWVSVIYSDGRGTFYGCSVKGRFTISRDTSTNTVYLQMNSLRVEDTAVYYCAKGRAAGPFDSWGQGTLVTVSS,ND / ND / ND,ND,4/9 (4.81)
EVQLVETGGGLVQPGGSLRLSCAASGFTLNSYGISWVRQAPGKGPEWVSVIYSFHRRTFRGDSVKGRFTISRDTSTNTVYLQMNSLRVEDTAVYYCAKGRAAGTFDSWGQGTLVTVSS,ND / ND / ND,ND,0/9
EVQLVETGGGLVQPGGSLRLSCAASGYTRNSYGISWVRQAPGKGPEWVSVKYSDGRRTFYGDSVKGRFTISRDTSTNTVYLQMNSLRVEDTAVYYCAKGRAAGTFDSWGQGTLVTVSS,ND / ND / ND,ND,0/9
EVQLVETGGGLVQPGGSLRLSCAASGFTMNSYGISWVRQAPGKGPEWVSVIYSDGRRTFLGISVKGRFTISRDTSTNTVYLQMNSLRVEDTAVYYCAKGRAAGTFDSWGQGTLVTVSS,ND / 3.17 / ND,3.17,3/9 (3.81)
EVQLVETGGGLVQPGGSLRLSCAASGFTLNVYGISWVRQAPGKGPEWVSDIYSDGRRTFYGDSVKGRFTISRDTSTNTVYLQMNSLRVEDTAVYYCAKGRAAGTFRSWGQGTLVTVSS,ND / ND / ND,ND,0/9
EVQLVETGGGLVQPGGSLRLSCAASIFTLNSYGISWVRQAPGKGPEWVSVIYIDGRRTFYGDSVKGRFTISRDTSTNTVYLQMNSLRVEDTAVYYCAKGRAAGTKDSWGQGTLVTVSS,ND / ND / ND,ND,0/9
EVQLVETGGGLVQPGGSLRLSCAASGFTLNSYGYSWVRQAPGKGPEWVSVIYSDSRRTFYGDSVTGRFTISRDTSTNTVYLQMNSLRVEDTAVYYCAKGRAAGTFDSWGQGTLVTVSS,ND / ND / ND,ND,1/9 (3.50)
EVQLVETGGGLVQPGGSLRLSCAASGFTLNSYGISWVRQAPGKGPEWVSVIYADGKRTFYGNSVKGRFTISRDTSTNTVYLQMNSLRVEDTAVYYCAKGRAAGTFDSWGQGTLVTVSS,-0.24 / 0.14 / 0.01,-0.03,0/9
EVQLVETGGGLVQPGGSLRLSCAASGFTLNRYGISWVRQAPGKGPEWVSVIDSDGRRTFYGDSVKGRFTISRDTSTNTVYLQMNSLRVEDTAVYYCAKGVAAGTFDSWGQGTLVTVSS,ND / ND / ND,ND,1/9 (3.85)
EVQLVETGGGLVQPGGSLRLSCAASGFTLNSYGISWVRQAPGKGPEWVSVIYSDGRRTFYGDVVEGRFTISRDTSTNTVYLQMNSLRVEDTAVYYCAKGRAAGDFDSWGQGTLVTVSS,4.06 / ND / ND,4.06,1/9 (4.78)
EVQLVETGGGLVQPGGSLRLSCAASGFGLNSYGISWVRQAPGKGPEWVSVIYSDGRRTFYQQSVKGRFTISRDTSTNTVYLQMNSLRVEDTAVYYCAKGRAAGTFDSWGQGTLVTVSS,1.32 / 1.31 / 1.55,1.39,3/9 (3.58)
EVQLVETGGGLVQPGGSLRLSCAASGFTLNSYGISWVRQAPGKGPEWVSMIYSDGRRTSYGDSVKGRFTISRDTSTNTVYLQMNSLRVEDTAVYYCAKGRAAGHFDSWGQGTLVTVSS,ND / 4.06 / ND,4.06,2/9 (4.10)
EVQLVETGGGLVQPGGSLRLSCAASCFTLNSYGISWVRQAPGKGPEWVSVIYSDPRRTFYGDSVKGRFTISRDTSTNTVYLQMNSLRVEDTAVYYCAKGRAAGTLDSWGQGTLVTVSS,ND / ND / ND,ND,0/9
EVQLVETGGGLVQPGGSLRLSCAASQFTLNSYGRSWVRQAPGKGPEWVSVIYSDGRRTFYGDSVKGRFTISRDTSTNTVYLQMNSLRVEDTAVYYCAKGRAAGTFYSWGQGTLVTVSS,ND / 4.62 / 4.67,4.65,3/9 (4.46)
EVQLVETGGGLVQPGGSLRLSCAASGFPLNSYGISWVRQAPGKGPEWVSVIYSDGRRTFYGDSVKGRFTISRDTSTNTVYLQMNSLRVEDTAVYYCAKGNAAGTFDSWGQGTLVTVSS,0.70 / 0.93 / 0.84,0.82,0/9
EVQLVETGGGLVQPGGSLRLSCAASGFTLNSYGIYWVRQAPGKGPEWVSVITSDGRRTFYGDLVKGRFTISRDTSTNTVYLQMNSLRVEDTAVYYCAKGRAAGTFDSWGQGTLVTVSS,ND / ND / ND,ND,3/9 (4.04)
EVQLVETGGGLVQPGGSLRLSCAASGFTLNSYGISWVRQAPGKGPEWVSVIYSDGRRPFYGDRPKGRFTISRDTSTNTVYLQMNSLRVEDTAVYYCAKGRAAGTFDSWGQGTLVTVSS,ND / ND / 3.81,3.81,0/9
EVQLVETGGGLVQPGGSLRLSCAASGFTLNSPGISWVRQAPGKGPEWVSVIYSDGRRTFYGNSVKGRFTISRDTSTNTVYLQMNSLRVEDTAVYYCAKGRAAGTFDSWGQGTLVTVSS,ND / ND / ND,ND,0/9

Excerpt, the first 2 entries:

VH,"replicates, log10 nM","log10 Kd (nM), mean",empty controls
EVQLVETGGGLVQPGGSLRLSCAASGFTLNSYGMQWVRQAPGKGPEWVSVIYSDGRRTFYGDSCKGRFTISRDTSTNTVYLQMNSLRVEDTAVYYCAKGRAAGTFDSWGQGTLVTVSS,ND / ND / ND,ND,3/9 (4.48)
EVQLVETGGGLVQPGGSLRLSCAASGFTLNSYGISWVRQAPGKGPEWVSVIYSDGRGTFYGCSVKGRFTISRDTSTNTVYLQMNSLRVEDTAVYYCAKGRAAGPFDSWGQGTLVTVSS,ND / ND / ND,ND,4/9 (4.81)

Values reported by Engelhart et al. 2022, doi:10.1038/s41597-022-01779-4 (FLAb copy).